US8138145B2, “Hybrid oligomers, their preparation process and pharmaceutical compositions containing them” (Centre National de la Recherche Scientifique (SNRS), priority 2005, dated 2012)
≈ marks a conversion by molar mass, not a printed value.

Tests used:
[1] = test system: Staphylococcus Aureus ATCC 25923; format: cell-based; details: Mueller-Hinton broth, 37° C., 18 to 20 hours
Procedure: (§1) Four strains were selected: Escherichia Coli ATCC 25922, Staphylococcus Aureus ATCC 25923, Pseudomonas Aeruginosa ATCC 27853 and a clinical isolated methicillin resistant Staphylococcus Aureus strain. Antibacterial activity of the molecules was tested by dilution method in Mueller-Hinton broth in order to determine the minimal inhibitory concentration (MIC) and the minimal bactericidal concentration (MBC). At least two independent assays were done. Stock solutions were obtained by solubilizing molecule powders in distilled water at concentration of 2.56 mg/mL and serial 2-fold diluted solutions were prepared. Bacterial inoculum was standardized by using direct suspensions of colonies from overnight growth in saline adjusted to a turbidity matching the 0.5 McFarland standard, and diluted to obtain a density comprised between 10^5 CFU/mL and 10^7 CFU/mL. Tubes containing 900 μL of inoculum with 100 μL of molecules solutions were incubated in air at 37° C. for 18 to 20 hours. Purity and inoculum density as well as percentage of viable bacteria in limpid tubes were checked by plate counting on sheep blood agar. Broth not containing any molecule solution was inoculated with each selected bacterial strain as a control for organism viability (growth control). The susceptibility of S. Aureus strains against vancomycin was used as an internal control as well as the activity of melittin.

[2] = test system: Escherichia Coli ATCC 25922; format: cell-based; details: Mueller-Hinton broth, 37° C., 18 to 20 hours
Procedure: as §1

CC[C@H](C)[C@H](NC(=O)CN)C(=O)NCC(=O)N[C@@H](C)C(=O)N[C@H](C(=O)N[C@@H](CC(C)C)C(=O)N[C@@H](CCCCN)C(=O)N[C@H](C(=O)N[C@@H](CC(C)C)C(=O)N[C@H](C(=O)N[C@H](C(=O)NCC(=O)N[C@@H](CC(C)C)C(=O)N1CCC[C@H]1C(=O)N[C@@H](C)C(=O)N[C@@H](CC(C)C)C(=O)N[C@H](C(=O)N[C@@H](CO)C(=O)N[C@@H](Cc1c[nH]c2ccccc12)C(=O)N[C@H](C(=O)N[C@@H](CCCCN)C(=O)N[C@@H](CCCNC(=N)N)C(=O)N[C@@H](CCCCN)C(=O)N[C@@H](CCCNC(=N)N)C(=O)N[C@@H](CCC(N)=O)C(=O)N[C@@H](CCC(N)=O)C(N)=O)[C@@H](C)CC)[C@@H](C)CC)[C@@H](C)O)[C@@H](C)O)C(C)C)C(C)C [mellitin, reference compound]
Minimal inhibitory concentration, Staphylococcus Aureus ATCC [1]: 32 µg/mL (≈ 11.2 µM) | Minimal bactericidal concentration, Staphylococcus Aureus ATCC ([1]; plate counting on sheep blood agar): 128 µg/mL (≈ 45 µM) | Minimal inhibitory concentration, Escherichia Coli ATCC 25922 [2]: >256 µg/mL
